Experimental data from paper PMC3490489 (Clinical cancer research : an official journal of the …, 2012).

Assay type: in vivo, human

## sorafenib glucuronide
All patients
  Mean sorafenib glucuronide metabolite ratio: 0.30±0.19 and ~ 0.30
Boys older than 10 years
  CV% of sorafenib glucuronide metabolite ratio: 42%
Boys ≤ 10 years
  CV% of sorafenib glucuronide metabolite ratio: 71%
Girls older than 10 years
  CV% of sorafenib glucuronide metabolite ratio: 28%
Girls ≤ 10 years
  CV% of sorafenib glucuronide metabolite ratio: 70%

Where “and” joins values, the source holds several entries; their conditions need not be identical. Equal values may be shown once. Read-outs that look alike come from different tables or passages of the source.
